Earlier results as cited in PMC3951241 (Journal of medicinal chemistry, 2013).

The chains behind the UniProt entries cited, without tags or fusion partners. Residues count along the entry.
UniProt P62813, 28-455: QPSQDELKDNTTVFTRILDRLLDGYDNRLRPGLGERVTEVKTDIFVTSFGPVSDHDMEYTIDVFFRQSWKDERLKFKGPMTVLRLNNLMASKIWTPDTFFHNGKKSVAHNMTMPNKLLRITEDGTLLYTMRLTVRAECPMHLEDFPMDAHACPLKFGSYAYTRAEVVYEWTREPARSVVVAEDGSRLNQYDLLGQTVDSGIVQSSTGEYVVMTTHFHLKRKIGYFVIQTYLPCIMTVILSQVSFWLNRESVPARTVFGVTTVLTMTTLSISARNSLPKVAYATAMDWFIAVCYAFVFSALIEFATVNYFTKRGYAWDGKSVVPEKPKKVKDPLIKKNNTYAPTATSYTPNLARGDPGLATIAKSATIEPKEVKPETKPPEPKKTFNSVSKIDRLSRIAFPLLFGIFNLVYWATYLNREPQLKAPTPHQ
UniProt P63138, 26-474: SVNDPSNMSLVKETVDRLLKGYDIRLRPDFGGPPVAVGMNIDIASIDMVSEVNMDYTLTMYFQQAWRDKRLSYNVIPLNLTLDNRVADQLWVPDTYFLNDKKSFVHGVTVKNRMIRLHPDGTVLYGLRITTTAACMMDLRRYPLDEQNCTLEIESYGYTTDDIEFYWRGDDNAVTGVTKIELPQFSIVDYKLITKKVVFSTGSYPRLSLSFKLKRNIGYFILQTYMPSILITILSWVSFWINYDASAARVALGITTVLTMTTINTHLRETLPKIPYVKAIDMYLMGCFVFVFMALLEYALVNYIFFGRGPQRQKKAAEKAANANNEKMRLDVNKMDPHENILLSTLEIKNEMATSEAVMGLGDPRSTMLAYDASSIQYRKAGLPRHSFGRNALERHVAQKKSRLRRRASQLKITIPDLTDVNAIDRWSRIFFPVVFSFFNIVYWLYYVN

Biological target: rat α1β2γ2L type GABAA receptors expressed in Xenopus laevis oocytes (Rattus norvegicus, UniProt P62813+P63138)
Conditions: 1 μM compound, 2 μM GABA; literature values ref 15; cited from earlier work

For `C[C@]12CC[C@@H](O)C[C@@H]1CC[C@@H]1[C@@H]2C(=O)C[C@]2(C)/C(=C\C#N)CC[C@@H]12` [compound 4, [3α,5α,17(20)Z]-3-Hydroxy-11-oxopregn-17(20)-ene-21-nitrile], the “oocyte electrophysiology 1 μM, ratio of currents in presence/absence of compound” value is listed as 5.06 ± 0.60.
